Screens: PubChem, National Center for Advancing Translational Sciences (NCATS)
An excerpt weighted towards active compounds, which were near 2.9% of everything screened.
PTAP TSG101 blk = blocks PTAP/TSG101 interaction to inhibit HIV-1 budding; Fluorescence polarization, FITC-PTAP peptide / Tsg101 binding; Potency, µM (series often up to 115 µM), without a hit: at the highest dose activity change, negative = inhibition, most hits filed as inhibitors; 340,000 tested, under 10 active; active = well fitted inhibition curve with a large enough effect in the main read-out, with a control signal flat, not every such curve was filed as active; inconclusive = small, poorly fitted or top-dose-only effect, or effect the other way, or a change in a side signal; inactive = no such curve, though single readings can be large or run the other way; note: potency is the fitted concentration of half-maximal effect; % of control where 0% means no effect
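Fluorescence polarization binding of Tsg101 binding domain (10 uM final) to FITC-labeled PTAP peptide (50 nM final) in HEPES pH 7.5 buffer with NaCl, Tween 20, EDTA, TCEP. Compounds added before peptide; binding 20 min at RT.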
Rango-impB inh = Rango-importin beta binding inhibition; AID 540263; Rango CFP/YFP FRET sensor + importin beta, 45 min; Q14974; 0.031% of 340,000 active; Potency, µM (top dose mostly 92.2 µM), for the others: at the highest dose inhibition of complex formation;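 note: potency is the fitted concentration of half-maximal effect; 0% = DMSO wells and 100% = buffer wells lacking importin beta; nearly all actives have a fitted effect of over 15% in size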
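Inhibition scored from the CFP 486 nm/YFP 530 nm FRET ratio 45 min after adding 0.125 microM importin beta to 50 nM Rango biosensor preincubated 5 min with compound (room temperature, PBS with DTT, Tween-20, BSA). No-importin wells as positive control.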
D3 antag = antagonists of human D3 dopamine receptor. max response, negative = inhibition, %. P35462. AID 652054. 2.5% of 360,000 active. D3R cells, DiscoveRx beta-arrestin luminescence, antagonist mode; hits give low values; in the data active = max response below about -50%; inconclusive = no clear call, values can overlap the other calls; note: % is set by controls: 0 for no effect and ±100 for the full control effect
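Cells expressing the human receptor were seeded at 1500 cells/well, incubated overnight at 37 degrees C in 5% CO2, then exposed to library compounds with dopamine controls for 90 minutes at 37 degrees C before luminescent detection.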
Mm-Cpn inhibitor = blocks the Methanococcus maripaludis chaperonin Mm-Cpn | 0.031% of 330,000 active | purified Mm-Cpn ATPase, ADP Transcreener TR-FRET | Potency, µM (titrated, usually from 76.9 µM), for the others: at the top dose activity, negative = inhibition, usual class: inhibitors; active = well fitted inhibition curve with a large enough effect; inconclusive = small, poorly fitted or top-dose-only effect; note: potency is the fitted concentration of half-maximal effect; % is set by controls: 0 for no effect and ±100 for the full control effect; nearly all actives have a fitted effect of over 80% in size
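25 nM Mm-CPN + cpd, 10 min 37°C; + 10 uM ATP, 30 min 37°C; buffer 30 mM Tris pH 7.4, 100 mM KCl, 5 mM MgCl2, 1 mM DTT; Transcreener ADP HTRF detection 30 min RT.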
DRD3 agonist = agonists of human D3 dopamine receptor; P35462; D3R DiscoveRx beta-arrestin cells, luminescence, 90 min; max activation, %; 0.58% of 410,000 active; AID 652048; in the data active = max activation above about 30%; note: 0% is about no effect
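Agonist-mode cell screen: cells plated at 1500/well and incubated overnight at 37 °C, then exposed to library compounds for 90 min at 37 °C. Detection reagent was added for 30–60 min at room temperature, and luminescence was read.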
Rango release inh = inhibition of RanGTP-driven Rango-importin beta dissociation. O95149+P62826. Biochemical FRET Rango-importin beta, RanGTP-induced dissociation. Potency, µM (doses to about 46.1 µM), for inactives: at the top dose activity change, negative = inhibition. 0.071% of 340,000 active. AID 540253; note: potency is the fitted concentration of half-maximal effect; % of control where 0% means no effect; nearly all actives have a fitted effect of over 45% in size
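Rango/importin beta premix (0.1/0.25 uM final), PBS + 1 mM DTT + 0.02% Tween-20 + 0.1% BSA; cpd 5 min RT; FRET pre-read; + RanGTP-RCC1 (0.6 uM Ran, 2 mM GTP, 0.2 uM RCC1); 45 min RT; FRET post-read, ex 430, em 486/530 nm.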
An asterisk follows results filed as active; ? = inconclusive; nt = not tested or not shown; [ ] = remark or other dose. Unless noted, calls come from the whole dose curve.

1. N#Cc1cn(CC(=O)N2CCCC2)c2ccccc12
2. O=C(c1ccccc1)c1cccn1CC(=O)N1CCc2ccccc2C1
3. N#Cc1cn(CC(=O)N2CCc3ccccc3C2)c2ccccc12
4. O=C(Cn1cccc1C(=O)c1ccccc1)NCCCN1CCc2ccccc2C1
5. Cc1ccc(NC(=O)CN2C(=O)COc3ccc(S(=O)(=O)Nc4ccccc4)cc32)c(C)c1
6. Cc1ccc(CN(C(=O)c2ccccc2F)c2ccccn2)o1
Assay by compound	1	2	3	4	5	6
D3 antag	-8.2	-54.0*	-53.3*	?	nt	nt
Mm-Cpn inhibitor	0.3%	1.5%	-0.9%	0.9%	nt	nt
Rango release inh	-1.8%	4.8%	4.5%	-6.2%	nt	nt
DRD3 agonist	3.8	-14.2	-10.0	-21.8	-17.6	-0.8
Rango-impB inh	-1.4%	1.4%	-2.5%	-0.9%	nt	nt
PTAP TSG101 blk	-8.1%	-0.7%	-0.4%	-4.4%	nt	nt

7. Cc1ccc(NC(=O)c2cccc3c(=O)c4c([nH]c23)CCCC4)c(C)c1
8. COC(=O)c1c(-c2ccc(Br)cc2)csc1NC(=O)Cc1ccc(OC)c(OC)c1
9. COC(=O)c1c(-c2ccc(C)cc2)csc1NC(=O)Cc1ccc(OC)c(OC)c1
10. CC(C)C12CN3CC(C(C)C)(CN(C1)C3c1ccccc1)C2O (stereo not given)
11. COc1ccc2c(c1)cc(CNc1ccc(OC)c(OC)c1)c(=O)n2CC(=O)Nc1ccc(F)cc1
12. CCn1c(NC(=O)c2ccc(COc3ccc(C)cc3[N+](=O)[O-])o2)nc2ccccc21
Assay by compound	7	8	9	10	11	12
D3 antag	nt	21.3	92.9	-83.8*	nt	10.4
Mm-Cpn inhibitor	nt	?	?	-0.9%[15.4 µM]	nt	-1.5%
Rango release inh	nt	0.9%	0.6%	0.4%	nt	16.7%
DRD3 agonist	2.9	11.8	32.4*	-22.3	-3.4	36.6*
Rango-impB inh	nt	0.4%	-1.8%	-2.7%	nt	-0.7%
PTAP TSG101 blk	nt	-5.0%	2.2%	-12.0%	nt	-3.4%

13. CC1=C(CO)C(=O)OC([C@@H](C)C2CC[C@H]3C4C[C@H]5O[C@]56[C@@H](O)C=CC(=O)[C@]6(C)C4CC[C@]23C)C1 (stereo not given in full)
14. CSc1ccc(CN(C)CCc2ccccn2)cc1
15. CN(CCc1ccccn1)Cc1ccc(Cl)cc1Cl
16. CN(CCc1ccccn1)Cc1ccc(Cl)c(Cl)c1
17. O=C(O)c1cc2cc(Cl)ccc2oc1=O
18. NC(=O)c1cc2cc(Cl)ccc2oc1=O
Assay by compound	13	14	15	16	17	18
D3 antag	-135.6*	-20.9	-69.9*	-51.3*	-27.6	?
Mm-Cpn inhibitor	0.7%	-1.0%	-0.2%	-1.2%	-0.7%	0.8%
Rango release inh	1.1%	1.2%	-2.1%	21.3%	5.3%	-14.0%
DRD3 agonist	-67.4	-5.2	-40.8	-20.9	34.1*	-3.6
Rango-impB inh	-0.6%	-2.1%	0.5%	-3.9%	0.4%	-0.8%
PTAP TSG101 blk	1.2%	-1.3%	-7.7%	-1.7%	-3.4%	-8.0%

19. N#CNC(=Nc1ccccc1)SCc1ccc(C(=O)O)cc1
20. CSC(=Nc1ccccc1)N=C(SCc1ccccc1)N(C)C
21. CCC(Sc1nc2ccccc2c(=O)n1CCc1ccc(OC)c(OC)c1)C(=O)N(CC)CC (stereo not given)
22. COc1ccc(NC(=O)CSc2ccccc2)cc1S(=O)(=O)N1CCCCC1
23. Cc1ccc(NC(=O)/C=C/c2ccc(S(=O)(=O)N3CCOCC3)cc2)cc1S(=O)(=O)N(C)C
24. COc1ccc(NC(=O)c2cc(S(=O)(=O)N3CCCCC3)ccc2C)cc1S(=O)(=O)N1CCOCC1
Assay by compound	19	20	21	22	23	24
D3 antag	-12.3	-84.4*	nt	5.1	-110.7*	-52.0*
Mm-Cpn inhibitor	1.9%	nt	nt	0.4%	nt	nt
Rango release inh	18.1%	11.2%	nt	0.2%	-2.4%	-20.2%
DRD3 agonist	3.6	-13.4	-5.9	-2.9	28.9	-5.7
Rango-impB inh	0.7%	-0.4%	nt	23.1µM*	?	-0.1%
PTAP TSG101 blk	-6.7%	-2.5%	nt	-9.6%	6.4%	-1.7%

25. COc1ccc(NC(=O)c2cc(S(=O)(=O)N3CCOCC3)ccc2C)cc1S(=O)(=O)N1CCOCC1
26. COc1ccc(NC(=O)c2cc(S(=O)(=O)N3CCCCC3)cn2C)cc1Cl
27. Cn1c(-c2cccs2)nc2ccccc21
28. Cc1ccc(CNC(=O)c2oc3ccc(S(=O)(=O)N4CCCC(C)C4)cc3c2C)cc1 (stereo not given)
29. Oc1c(Cl)cc(Cl)cc1/C=N/c1nc(-c2ccc(Cl)cc2)cs1
30. COc1ccc(C2CC(=O)N(CC(=O)Nc3cccc(C)c3C)c3ccccc3S2)cc1OC (stereo not given)
Assay by compound	25	26	27	28	29	30
D3 antag	-19.3	nt	3.1	nt	-82.0*	nt
Mm-Cpn inhibitor	-0.2%	nt	0.2%	nt	-0.6%	nt
Rango release inh	-2.4%	nt	4.8%	nt	?	nt
DRD3 agonist	-3.3	49.3*	6.1	3.3	-12.3	3.0
Rango-impB inh	-0.7%	nt	-1.0%	nt	?	nt
PTAP TSG101 blk	-2.0%	nt	-1.2%	nt	-10.0%	nt

31. CCC(CN(C)C)Oc1cc(NCc2ccccc2)c2ncn(C(C)C)c2c1 (stereo not given)
32. CCC(CO)Oc1cc(NC(=O)c2ccc([N+](=O)[O-])cc2)c2ncn(C(C)C)c2c1 (stereo not given)
33. CCC(CO)Oc1cc(NC(=O)c2cccc([N+](=O)[O-])c2)c2ncn(C(C)C)c2c1 (stereo not given)
34. CCC(CO)Oc1cc(NCc2ccc(F)cc2)c2ncn(C(C)C)c2c1 (stereo not given)
35. CCC(CO)Oc1cc(NCc2ccncc2)c2ncn(C(C)C)c2c1 (stereo not given)
36. CCCCNC(=O)c1cnc2sc(N3CCCCCC3)nn2c1=O
Assay by compound	31	32	33	34	35	36
D3 antag	-55.0*	-60.5*	-20.9	0.0	0.8	nt
Mm-Cpn inhibitor	-3.7%	-1.7%	-1.5%	-0.8%	2.0%	nt
Rango release inh	?	2.9%	-10.8%	?	-22.4%	nt
DRD3 agonist	-18.5	2.5	0.1	7.7	56.1*	-7.4
Rango-impB inh	?	-1.9%	-0.3%	?	?	nt
PTAP TSG101 blk	-4.1%	1.8%	-0.7%	-1.9%	0.3%	nt

Record cards, as listed above:
`CCC(CO)Oc1cc(NC(=O)c2ccc([N+](=O)[O-])cc2)c2ncn(C(C)C)c2c1` (stereo not given) as listed: D3 antag = -60.5*; Mm-Cpn inhibitor = -1.7%; Rango release inh = 2.9%; DRD3 agonist = 2.5; Rango-impB inh = -1.9%; PTAP TSG101 blk = 1.8%
`CCC(CO)Oc1cc(NCc2ccncc2)c2ncn(C(C)C)c2c1` (stereo not given) as listed: D3 antag = 0.8; Mm-Cpn inhibitor = 2.0%; Rango release inh = -22.4%; DRD3 agonist = 56.1*; Rango-impB inh = ?; PTAP TSG101 blk = 0.3%

Remaining list, next part
37. COc1ccc(-c2cn3c(n2)sc2cc(C(=O)NCC(C)c4ccccc4)ccc23)cc1 (stereo not given)
38. Cc1ccc(N(Cc2cccs2)C(=O)C(C)Oc2ccc(Cl)c(C)c2)cc1 (stereo not given)
39. COc1ccc(Cl)cc1NC(=O)Cn1cc(S(=O)(=O)Cc2cccc(Cl)c2)c2ccccc21
40. C[C@@H](C(=O)Nc1ccc2ccccc2c1)[C@@H]1C[C@@]1(C)[C@@H](NC(=O)c1ccccc1)c1ccccc1
41. C[C@@H](C(=O)Nc1ccc2ccccc2c1)[C@H]1C[C@]1(C)[C@H](NC(=O)c1cccnc1)c1ccccc1
42. O=C(NC(=S)Nc1ccc(CN2CCOCC2)cc1)c1ccc([N+](=O)[O-])cc1Cl
43. O=C(NC(=S)Nc1ccc(CN2CCOCC2)cc1)c1cccc([N+](=O)[O-])c1
44. O=C(NC(=S)Nc1ccc(CN2CCOCC2)cc1)c1ccccc1[N+](=O)[O-]
Assay by compound	37	38	39	40	41	42	43	44
D3 antag	nt	nt	nt	0.0	-50.1*	-78.4*	0.0	-107.2*
Mm-Cpn inhibitor	nt	nt	nt	-3.1%	0.7%	1.0%	0.5%	0.7%
Rango release inh	nt	nt	nt	-18.0%	?	-18.1%	-1.6%	-20.1%
DRD3 agonist	8.5	-19.8	3.4	-14.0	0.3	-16.4	-17.8	-11.3
Rango-impB inh	nt	nt	nt	5.9%	2.3%	1.0%	-1.0%	-0.1%
PTAP TSG101 blk	nt	nt	nt	-1.1%	-5.3%	-4.7%	-5.5%	-0.4%
